The values below come from ChEMBL document CHEMBL4371059 (J Med Chem, 2019).

Chains of the proteins cited; added tags and fusions are not shown. Lines headed by an entry give the natural chain unless they say otherwise; changes in a name come on top.
UniProt Q60492, whole entry, looked up: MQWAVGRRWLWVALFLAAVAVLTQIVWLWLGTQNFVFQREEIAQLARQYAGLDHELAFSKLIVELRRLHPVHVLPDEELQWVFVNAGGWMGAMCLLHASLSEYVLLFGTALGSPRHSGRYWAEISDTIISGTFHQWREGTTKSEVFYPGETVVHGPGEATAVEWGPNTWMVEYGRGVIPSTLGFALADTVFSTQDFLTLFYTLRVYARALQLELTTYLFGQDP
UniProt P41145: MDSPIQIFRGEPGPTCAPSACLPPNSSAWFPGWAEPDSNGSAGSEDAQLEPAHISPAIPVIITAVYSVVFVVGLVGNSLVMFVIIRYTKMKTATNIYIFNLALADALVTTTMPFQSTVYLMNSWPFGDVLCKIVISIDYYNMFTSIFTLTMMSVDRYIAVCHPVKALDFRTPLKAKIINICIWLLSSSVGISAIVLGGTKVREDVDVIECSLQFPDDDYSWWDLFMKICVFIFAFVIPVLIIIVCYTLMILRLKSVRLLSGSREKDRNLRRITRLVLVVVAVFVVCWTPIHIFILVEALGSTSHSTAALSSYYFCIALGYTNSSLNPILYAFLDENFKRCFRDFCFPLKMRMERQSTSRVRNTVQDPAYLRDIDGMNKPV
UniProt P33533, whole entry, looked up: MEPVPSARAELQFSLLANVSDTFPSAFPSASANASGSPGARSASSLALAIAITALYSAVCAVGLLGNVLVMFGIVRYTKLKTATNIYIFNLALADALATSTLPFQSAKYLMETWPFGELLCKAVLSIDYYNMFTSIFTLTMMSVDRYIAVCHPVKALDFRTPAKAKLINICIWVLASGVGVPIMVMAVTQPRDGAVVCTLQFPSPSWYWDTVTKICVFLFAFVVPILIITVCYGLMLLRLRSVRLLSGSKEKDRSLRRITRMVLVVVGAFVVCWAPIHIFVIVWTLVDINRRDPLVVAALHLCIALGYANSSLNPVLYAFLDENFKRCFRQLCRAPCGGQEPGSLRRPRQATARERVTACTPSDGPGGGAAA

Experiment [1] has as its target Sigma non-opioid intracellular receptor 1 (Cavia porcellus) (UniProt Q60492). The experiment can be described thus: Displacement of [3H]-(+)-pentazocine from sigma1 receptor in guinea pig brain membranes at 1 uM after 120 mins by scintillation counting method relative to control. (Loss of bound radioactivity is the signal in a displacement assay; it reports binding, not function.)

The target in experiment [2] is Kappa-type opioid receptor (Homo sapiens) (UniProt P41145). Description: Agonist activity at human KOR expressed in HEK293T cells assessed as inhibition of Galphai-mediated cAMP accumulation after 15 mins by microbeta counting assay relative to salvinorin A. Background: Cyclic AMP is a second messenger, typically raised through Gs and lowered through Gi signalling.
The target is the same in experiment [3]. The experiment can be described thus: Agonist activity at Tango-KOR (unknown origin) expressed in HTLA cells harboring TEV-fused-beta-arrestin 2 assessed as increase in beta arrestin 2 recruitment after overnight incubation by BrightGlo reagent based assay relative to salvinorin A.
The nature of experiment [4]: Ratio of Ki for displacement of [3H]diprenorphine from human KOR expressed in HEK293T cell membranes to Ki for displacement of [3H]U-69,593 from KOR in guinea pig brain membranes.
Experiment [5] has as its target Delta-type opioid receptor (Rattus norvegicus) (UniProt P33533). The experiment can be described thus: Displacement of [3H]DPDPE from DOR in Sprague-Dawley rat brain membranes at 1 uM after 120 mins by scintillation counting method relative to control.
The nature of experiment [6]: Selectivity ratio of Ki for sigma2 receptor in rat liver membranes to Ki for KOR in guinea pig brain membranes.
The species named for experiment [7] is Cavia porcellus. Description: Selectivity ratio of Ki for sigma1 receptor in guinea pig brain membranes to Ki for KOR in guinea pig brain membranes.
The nature of experiment [8]: Selectivity ratio of Ki for DOR in Sprague-Dawley rat brain membranes to Ki for KOR in guinea pig brain membranes.
Experiment [9] concerns the target T1, Sigma intracellular receptor 2 (Rattus norvegicus) (UniProt Q5U3Y7).
T1 sequence (whole entry): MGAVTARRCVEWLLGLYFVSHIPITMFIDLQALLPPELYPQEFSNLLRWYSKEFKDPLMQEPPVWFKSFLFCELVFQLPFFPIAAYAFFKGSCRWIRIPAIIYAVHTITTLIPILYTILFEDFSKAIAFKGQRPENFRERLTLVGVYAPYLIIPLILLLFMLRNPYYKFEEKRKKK
The experiment can be described thus: Displacement of [3H]DTG from sigma2 receptor in rat liver membranes at 1 uM after 120 mins by scintillation counting method relative to control. The experiment is classed as cell membranes.

For experiment [10], the species on record is Cavia porcellus. The experiment can be described thus: Selectivity ratio of Ki for MOR in guinea pig brain membranes to Ki for KOR in guinea pig brain membranes.
Experiment [11] concerns T-cell. The experiment can be described thus: Anti-inflammatory activity in PMA/ionomycin-stimulated OPRK deficient mouse T cells assessed as reduction in IFNgamma production at 5 ug/ml treated for 48 hrs starting from 12 hrs post PMA/ionomycin stimulation by flow cytometry.
Experiment [12] relates to T-cell. The experiment can be described thus: Immunomodulatory activity in PMA/ionomycin-stimulated OPRK deficient mouse T cells assessed as increase in IL-10 production at 5 ug/ml treated for 48 hrs starting from 12 hrs post PMA/ionomycin stimulation.
Experiment [13] deals with Dendritic cell. Description: Anti-inflammatory activity in PMA/ionomycin-stimulated OPRK deficient mouse bone marrow derived dendritic cells assessed as reduction in IFNgamma production at 5 ug/ml treated for 48 hrs starting from 12 hrs post PMA/ionomycin stimulation by flow cytometry. A general note: In flow cytometry, cells or beads pass a laser one at a time.

Structures are written as SMILES. The source made the active and inactive calls. The calls are words filed in the database; no cut-off is given here.

One may read the inhibition as the percentage by which the read-out fell short of the control. By Emax is commonly meant the greatest response seen or fitted, relative to the assay's reference. Regarding `CC(C)(C)OC(=O)N1CCN(C(=O)Cc2ccc(Cl)c(Cl)c2)[C@@H]2[C@@H](N3CCCC3)CCC[C@@H]21`, the inhibition in [1] is 12%; in experiment [5], above 50%. The Emax in experiment [2] amounted to 94%; in [3], 102%. In [4], the Ratio Ki was 3 to 9.

For `O=C(Cc1ccc(Cl)c(Cl)c1)N1CCN(CCF)[C@H]2CCC[C@H](N3CCCC3)[C@H]21`, the Ratio Ki in experiment [6] is above 180; in experiment [7] it was above 180; in experiment [8], above 450.

As to `CCN1CCN(C(=O)Cc2ccc(Cl)c(Cl)c2)[C@H]2[C@@H]1CCC[C@@H]2N1CCCC1`, the inhibition was 11% in experiment [1] and above 50% in [5]. Moreover, the Emax in experiment [2] was determined as 103%; in experiment [3] it was 99%. Besides, the Ratio Ki in experiment [4] fell in the range of 3 to 9.

With `O=C(Cc1ccc(Cl)c(Cl)c1)N1CCN(C(=O)COCCF)[C@H]2CCC[C@H](N3CCCC3)[C@H]21`, the Ratio Ki in [4] fell in the range of 3 to 9.

`CCCN1CCN(C(=O)Cc2ccc(Cl)c(Cl)c2)[C@@H]2[C@@H](N3CCCC3)CCC[C@@H]21` (racemic): the inhibition in experiment [9], in experiment [1] and in [5] was above 50% each time. Besides, the Emax in experiment [2] was 102%; in [3] it was 108%. Further, the Ratio Ki in experiment [4] is 3 to 9.

For `O=C(Cc1ccc(Cl)c(Cl)c1)N1CCN(C(=O)Cn2cc(CCCF)nn2)[C@H]2CCC[C@H](N3CCCC3)[C@H]21`, the Ratio Ki in experiment [6] was above 180; in experiment [7], above 180; in experiment [8], 130; in experiment [10], above 285. In addition, the inhibition is 0% in experiment [9], 0% in experiment [1] and above 50% in [5].

As to `O=C(Cc1ccc(Cl)c(Cl)c1)N1CCN(Cc2cn(CCF)nn2)[C@H]2CCC[C@H](N3CCCC3)[C@H]21`, the Ratio Ki in experiment [6] is above 180; in [7], above 180; in experiment [8], 74; in experiment [10], 100; in experiment [4], 3 to 9. The result in experiment [11], in experiment [12] and in [13] was inactive. Further, the inhibition in [1] was 2%; in [5], above 50%. Further, the values for the Emax in experiment [2] and in [3] were 103% and 86%, respectively.

Regarding `CCCCN1CCN(C(=O)Cc2ccc(Cl)c(Cl)c2)[C@@H]2[C@@H](N3CCCC3)CCC[C@@H]21` (racemic), the Ratio Ki in experiment [6] was 230; in experiment [7] it was 135; in [4] it was 3 to 9. Besides, the inhibition in experiment [9], in experiment [1] and in [5] was above 50% in each case. In addition, the maximal effect (Emax) was 102% in [2] and 106% in [3].

Regarding `CN1CCN(C(=O)Cc2ccc(Cl)c(Cl)c2)[C@H]2[C@@H]1CCC[C@@H]2N1CCCC1`, the figures for the inhibition in [1] and in experiment [5] were 0% and above 50%, respectively. Also, the Emax worked out at 102% in [2] and 101% in experiment [3]. Besides, the Ratio Ki in experiment [4] fell in the range of 3 to 9.

Regarding `O=C(Cc1ccc(Cl)c(Cl)c1)N1CCN[C@H]2CCC[C@H](N3CCCC3)[C@H]21`, the Ratio Ki in experiment [6] was above 180; in [7] it was above 180; in experiment [8], 380; in [10] it was above 1800; in [4] it was 3 to 9. Also, the figures for the inhibition in experiment [1] and in experiment [5] were 0% and above 50%, respectively. The maximum response (Emax) in [2] stood at 103%; in experiment [3], 93%.
